# Reference: PubChem BioAssay AID1974 (The Scripps Research Institute Molecular Screening Center, 2009)
# Amino acid sequences for entries named in this document (tags omitted). A change or cut given only in a name is not applied to a line headed by its entry.
# UniProt P78417: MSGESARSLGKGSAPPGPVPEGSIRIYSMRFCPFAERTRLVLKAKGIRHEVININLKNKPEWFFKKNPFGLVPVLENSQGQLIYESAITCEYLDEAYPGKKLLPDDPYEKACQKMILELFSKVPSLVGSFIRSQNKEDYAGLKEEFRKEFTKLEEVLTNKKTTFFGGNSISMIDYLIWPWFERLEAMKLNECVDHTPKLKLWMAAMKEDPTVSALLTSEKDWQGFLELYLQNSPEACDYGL
# The list shows a part of the results, in another mix than the full data. Active and inactive are the calls of the source.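 The calls were made as follows: active = inhibition above the campaign mean inhibition plus 3 SD (cut at about 35% in these data); inactive = the rest.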
# Target: Glutathione S-transferase omega-1 (Homo sapiens) (UniProt P78417)
# Test: human GSTO1 enzyme inhibition – biochemical, fluorescence polarization, counter-screen for RBBP9 inhibitor project, primary screen (AID 1974);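 also: 0% = GSTO1-1 with DMSO and 100% = wells lacking GSTO1-1 enzyme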
# Details: recombinant GSTO1, activity-based probe fluorescence polarization; at 5.96 µM; hits give high values
row,Structure (SMILES),inhibition
1,COc1ccc(N/C(=N/P(=O)(N2CCOCC2)N2CCOCC2)N2CCOCC2)cc1,inactive: -0.26%
2,Cc1c2c(nc3ccccc13)SC(C(Cl)Cl)C2 (stereo not given),inactive: -2.67%
3,Cc1cc(=O)[nH]c(N[N+](=O)[O-])n1,inactive: 0.51%
4,O=C(OC1CN2CCC1CC2)C12CC3CC(CC(C3)C1)C2 (stereo not given),inactive: -1.42%
5,COc1cc(I)ccc1[As](=O)(O)O,inactive: 1.13%
6,COc1ccc2nc(NP(=O)(c3ccccc3)c3ccccc3)sc2c1,inactive: -1.11%
7,ClCCSc1nnc(-c2cccnc2)o1,inactive: 0.54%
8,CC(C)c1ccc(OP(=O)(Nc2ccccn2)Oc2ccccc2F)cc1 (stereo not given),inactive: -1.55%
9,O=[N+]([O-])c1cc([N+](=O)[O-])c(-c2ccn[nH]2)s1,inactive: 28.1%
10,CCN(CC)C(=S)SC(NC=O)C(Cl)(Cl)Cl (stereo not given),inactive: -3.56%
11,CC(C)NC(=O)NP(=O)(Oc1ccccc1)Oc1ccccc1,inactive: 6.62%
12,C[As](=O)(O)c1cccc(C(=O)O)c1,inactive: 5.39%
13,O=[As](O)(c1ccc(O)cc1)c1ccccc1O,inactive: -3.27%
14,Cc1ccc(OP(=O)(Nc2ccc([N+](=O)[O-])cn2)Oc2ccc(C)cc2)cc1,inactive: -0.85%
15,Cc1ccc2nc3c(c(C)c2c1)CC(C(Cl)Cl)S3 (stereo not given),inactive: 0.45%
16,CCOC(=O)Nc1cccc([As](=O)(O)O)c1,inactive: 3.32%
17,Cc1cc(SC(NC=O)C(Cl)(Cl)Cl)ncn1 (stereo not given),inactive: -4.92%
18,O=P(Nc1ccccn1)(c1cccc2ccccc12)c1cccc2ccccc12,inactive: 0.95%
19,CCOC(=O)Nc1ccc([As](=O)(O)O)c(O)c1,inactive: 5.72%
20,Cc1cc(SC(NC(=O)c2ccccc2)C(Cl)(Cl)Cl)nc(C(C)C)n1 (stereo not given),inactive: 2.97%
21,O=C(OC1CN2CCC1CC2)c1cccc([N+](=O)[O-])c1 (stereo not given),inactive: 3.47%
22,CCOC(=O)c1ccc(NC(=O)C(C)(CCl)SC)cc1 (stereo not given),inactive: -4.08%

row,Structure (SMILES),inhibition
1,CCC(C)N(CC(C)C)C(=S)SC(NC(C)=O)C(Cl)(Cl)Cl (stereo not given),inactive: -44.4%
2,COP1(=S)c2c(C)nn(CCC#N)c2N=C(c2ccc(F)cc2)N1C (stereo not given),inactive: -1.75%
3,O=C(Nc1ccncc1[N+](=O)[O-])c1ccc([N+](=O)[O-])cc1[N+](=O)[O-],inactive: 9.63%
4,O=C(COc1ccccc1)OC1CN2CCC1CC2 (stereo not given),inactive: -4.22%
5,COc1ccccc1CNC(=O)COC(=O)C(O)(c1ccccc1)c1ccccc1,inactive: 1.58%
6,CN(C(=O)Cc1ccc(Cl)c(Cl)c1)[C@@H]1CCCC[C@H]1N1CCCC1,inactive: 5.66%
7,CC(C)/C=N\N=C(\N)N[N+](=O)[O-],inactive: 13.3%
8,CC1(CBr)Cn2c(nc3ccccc3c2=O)S1 (stereo not given),inactive: 3.28%
9,O=[As](O)(c1ccccc1Br)c1ccccc1Br,inactive: -2.73%
10,CCOP(=O)(NC(=NC(C)c1ccccc1)NC(C)c1ccccc1)OCC (stereo not given),inactive: 9.51%
11,CCC1=CC2Cc3nc4ccc(Cl)cc4c(N)c3C(C1)C2 (stereo not given),inactive: -0.22%
12,O=P1(Nc2ccccn2)COc2ccccc2OC1,inactive: 8.76%
13,CN(CCCl)Cc1cc(Cl)c(NC2=NCCN2)c(Cl)c1,inactive: 5.16%
14,CCOP(=O)(Nc1ccc(C)cn1)OCC,inactive: 8.04%
15,CC(C)(C)C(=O)NC(Sc1ncccn1)C(Cl)(Cl)Cl (stereo not given),inactive: 10.2%
16,Clc1n[nH]nc1-c1nn[nH][15n]1,inactive: 0.44%
17,O=P1(Nc2ncccn2)COc2ccccc2OC1,inactive: 0.72%
18,Nc1cccc([As](=O)(O)c2ccccc2)c1,inactive: -16.8%
19,O=P1(Nc2ccc(Br)cn2)COc2ccccc2OC1,inactive: 3.17%
20,O=[As](O)(c1cccs1)c1cccs1,inactive: 0.71%
21,Cc1ccc(OCC(=O)OC2CN3CCC2CC3)cc1 (stereo not given),inactive: -7.73%
22,Cc1ccc(C(=O)OC2CN3CCC2CC3)cc1 (stereo not given),inactive: 4.15%

row,Structure (SMILES),inhibition
1,CC1CCC(C(C)C)C(OP(=O)(Nc2ccccn2)c2ccccc2)C1 (stereo not given),inactive: 2.33%
2,Cc1nn(-c2ccccc2)c2c1P(=O)(N1CCOCC1)N(C)C(c1ccccc1)=N2 (stereo not given),inactive: -2.12%
3,CN(C)C1(CNC(=O)c2ccc(S(C)(=O)=O)cc2)CCCCC1,inactive: 5.69%
4,O=C(/C=C/c1ccccc1)OC1CN2CCC1CC2 (stereo not given),inactive: -2.6%
5,NC(=O)Nc1ccc([As](=O)(O)O)cc1,inactive: 5.41%
6,CN(C(=O)Cc1ccccc1)[C@@H]1CC[C@]2(CCCO2)C[C@H]1N1CCCC1,inactive: 8.17%
7,CCOP1(=S)c2c(C)nn(CCC#N)c2N=C(c2ccc(F)cc2)N1C (stereo not given),inactive: -3.29%
8,N#CCCN(C(=O)COC(=O)C(O)(c1ccccc1)c1ccccc1)c1ccc(F)cc1,inactive: -9.29%
9,CN(C(=O)Cc1ccc(Cl)c(Cl)c1)[C@H]1CC[C@@]2(CCCO2)C[C@@H]1N1CCCC1,inactive: 4.35%
10,CN(C)C(=O)c1cc([N+](=O)[O-])cc2c1-c1c(cc([N+](=O)[O-])cc1[N+](=O)[O-])C2=O,active: 70.9%
11,O=[N+]([O-])c1ccc2c(c1)nnn2O,inactive: 8.67%
12,O=P(Nc1nccs1)(c1ccccc1)c1nc2ccccc2s1 (stereo not given),inactive: 17.7%
13,O=P(Nc1nccs1)(Oc1ccccc1)Oc1ccccc1,inactive: -0.79%
14,CCOP1(=S)c2c(C)nn(CCC#N)c2N=C(c2ccccc2F)N1C (stereo not given),inactive: 3.05%
15,CS(=O)(=O)c1cc([N+](=O)[O-])c2no[n+]([O-])c2c1,active: 39.7%
16,O=C(O)COc1ccc([As](=O)(O)O)cc1[N+](=O)[O-],inactive: -0.31%
17,Nc1ccccc1[As](=O)(O)c1ccccc1,inactive: -3.43%
18,Nc1cccc2c([As](=O)(O)O)cccc12,active: 93.8%
19,Cc1ccc(NCCc2c([N+](=O)[O-])cc([N+](=O)[O-])cc2[N+](=O)[O-])cc1,active: 54.7%
20,CCCOP(=S)(Nc1nc(N)cc(=O)[nH]1)OCCC,inactive: -2.36%
21,CCOP(=O)(Nc1cccc2ccccc12)OCC,inactive: 1.14%
